The source of these data is US8003649B2 (AstraZeneca AB, priority 2007, dated 2011).

Chains of the proteins cited; added tags and fusions are not shown.
UniProt P10275, whole entry T878A: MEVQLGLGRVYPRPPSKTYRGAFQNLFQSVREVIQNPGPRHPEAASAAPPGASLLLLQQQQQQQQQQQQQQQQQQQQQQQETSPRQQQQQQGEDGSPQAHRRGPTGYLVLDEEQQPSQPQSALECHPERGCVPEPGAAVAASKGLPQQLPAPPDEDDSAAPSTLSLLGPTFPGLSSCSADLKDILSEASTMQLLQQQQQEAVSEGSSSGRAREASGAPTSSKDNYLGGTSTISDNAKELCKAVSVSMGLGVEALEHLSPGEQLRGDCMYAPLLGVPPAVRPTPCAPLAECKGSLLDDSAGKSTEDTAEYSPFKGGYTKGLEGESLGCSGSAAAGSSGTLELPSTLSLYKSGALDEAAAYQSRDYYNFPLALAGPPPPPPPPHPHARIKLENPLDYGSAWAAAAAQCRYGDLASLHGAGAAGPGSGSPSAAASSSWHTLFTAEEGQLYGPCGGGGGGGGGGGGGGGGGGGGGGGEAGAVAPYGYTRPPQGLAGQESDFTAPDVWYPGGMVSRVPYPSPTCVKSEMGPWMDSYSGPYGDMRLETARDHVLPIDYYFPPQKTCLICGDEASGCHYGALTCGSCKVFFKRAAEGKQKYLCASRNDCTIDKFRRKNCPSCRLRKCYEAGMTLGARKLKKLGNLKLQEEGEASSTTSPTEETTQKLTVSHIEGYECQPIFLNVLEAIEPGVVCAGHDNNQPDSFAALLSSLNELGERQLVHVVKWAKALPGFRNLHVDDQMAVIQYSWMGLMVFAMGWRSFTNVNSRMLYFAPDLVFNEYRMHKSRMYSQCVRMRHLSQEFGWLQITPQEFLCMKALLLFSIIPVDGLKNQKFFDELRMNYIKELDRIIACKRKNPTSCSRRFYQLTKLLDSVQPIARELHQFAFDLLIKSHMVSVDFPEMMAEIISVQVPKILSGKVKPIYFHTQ

The target of the assay is T1, Androgen Receptor (AR) (Homo sapiens, UniProt P10275, T878A).
T1 construct: cell based immuno-fluorescence assay using the LNCaP prostate epithelial cell line; endogenous in cells; host or cells: LNCaP clone FGC (ATCC CRL-1740)
Kind of assay: LNCaP Androgen Receptor Down-regulation Cell Assay (immunofluorescence end point). The format is cell-based. The settings on record: read-out: Androgen Receptor Down-regulation Assay (a) IC50/μM. Here is the method: The ability of compounds to reduce Androgen Receptor (AR) numbers was assessed in a cell based immuno-fluorescence assay using the LNCaP prostate epithelial cell line.
a) LNCaP Androgen Receptor Down-regulation Cell Assay
A 5 ml volume of Growth Medium was added to each flask (as above except that 5% (v/v) charcoal stripped FBS (HyClone Code no. SH30068.03) was included instead of 10% (v/v) FBS). Cells were syringed at least twice using a sterile 18G×1.5″ (1.2×40 mm) broad gauge needle and cell density was measured using a haemocytometer.
Test data reported herein was generated using two different compounds preparation and dosing methods. […]
Immunostaining was performed at room temperature. […] Then 50 μl of PBST was added to each well and plates were covered with a black plate seal and stored at 4° C. before being read. Plates were read within six hours of completing the immunostaining.
The Green Fluorescent AR-associated signal in each well was measured using an Acumen Explorer HTS Reader (TTP Labtech Ltd., Cambridge). […] The instrument is a laser-scanning fluorescence microplate cytometer which samples the well at regular intervals and uses threshold algorithms to identify all fluorescent intensities above the solution background without the need to generate and analyse an image. These fluorescent objects can be quantified and provide a measure of the AR levels in cells. […]

Molecules are shown by their SMILES.

`Fc1ccc(CN2CCN(c3ccc4nnc(C(F)(F)F)n4n3)CC2)cc1` [Example 45, 6-[4-[(4-fluorophenyl)methyl]piperazin-1-yl]-3-(trifluoromethyl)-[1,2,4]triazolo[4,3-b]pyridazine]: the DC50 was found to be 1.4 µM.
